Data published in US6861448B2, “NAD synthetase inhibitors and uses thereof” (priority 1998, dated 2005).
pIC50: −log10 of the molar value.

By UniProt entry, the sequences of proteins in these tests, tags left out.
UniProt P08164, whole entry: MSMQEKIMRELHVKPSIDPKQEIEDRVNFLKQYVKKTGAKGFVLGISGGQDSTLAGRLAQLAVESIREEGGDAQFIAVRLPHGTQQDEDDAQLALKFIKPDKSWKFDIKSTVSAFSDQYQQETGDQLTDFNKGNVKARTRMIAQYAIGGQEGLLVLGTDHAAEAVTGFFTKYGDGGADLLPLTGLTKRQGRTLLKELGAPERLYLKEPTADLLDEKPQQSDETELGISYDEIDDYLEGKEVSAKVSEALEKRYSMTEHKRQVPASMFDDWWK

Columns and labels:
B. subtilis = experiment: MIC test (NCCLS broth dilution), growth inhibition; format: cell-based; conditions: multiple values = two or more tests; tested form: iodide
NAD synthetase = NAD synthetase (Bacillus subtilis, UniProt P08164); experiment: NAD synthetase coupled enzyme assay; format: biochemical; conditions: read-out: IC50 Mean; NAD synthetase 2.0 μg/mL; 0.1 mM NaAD; 0.2 mM ATP; pH 8.5; tested form: iodide

| SMILES | Minimal Inhibitory Concentration (MIC), B. subtilis (B. subtilis) | pIC50 (NAD synthetase) |
| --- | --- | --- |
| C[N+](C)(C)[C@@H](Cc1ccccc1)C(=O)NCCCCCCCCOc1ccc(OCc2cccc(Cl)c2)cc1 | <0.39 µg/mL | 4.50 |
| C[N+](C)(C)C(Cc1ccccc1)C(=O)NCCCCCCCCOc1ccc(OC(=O)c2ccccc2Cl)cc1 (stereo not shown) | – | 4.74 |
| C[n+]1cccc(C(=O)NCCCCCCCCOc2ccc(OC(=O)c3cccc(Cl)c3)cc2)c1 | – | 4.75 |
| C[N+](C)(C)C(Cc1ccc(O)cc1)C(=O)OCCCCCCCn1ccc2cc(OCc3ccccc3)ccc21 (stereo not shown) | – | 4.69 |
| C[N+](C)(C)c1ccc(CC(=O)OCCCCCCCCOc2ccc(OCc3ccc(Cl)cc3)cc2)cc1 | – | 4.80 |
| COc1ccc(CC(C(=O)OCCCCCCCn2ccc3cc(OCc4ccccc4)ccc32)[N+](C)(C)C)cc1 (stereo not shown) | – | 4.62 |
| COC(=O)c1cc2cc(OCc3ccccc3)ccc2n1CCCCCCCNC(=O)Cc1ccc([N+](C)(C)C)cc1 | – | 4.44 |
| C[n+]1cccc(C(=O)NCCCCCCCCOc2ccc(OC(=O)c3ccc(Cl)cc3Cl)cc2)c1 | – | 4.63 |
| COC(=O)c1cc2cc(OCc3ccccc3)ccc2n1CCCCCCCNC(=O)c1ccc[n+](C)c1 | – | 4.44 |
| COC(=O)c1ccc(OCc2ccccc2)cc1OCCCCCCCCOC(=O)Cc1ccc([N+](C)(C)C)cc1 | – | 4.38 |
| C[N+](C)(C)C(Cc1ccccc1)C(=O)NCCCCCCCCOc1ccc(OC(=O)c2c(F)cccc2F)cc1 (stereo not shown) | – | 4.58 |
| C[N+](C)(C)C(Cc1ccccc1)C(=O)OCCCCCCCCOc1ccc(OC(=O)c2ccc(N=[N+]=[N-])cc2)cc1 (stereo not shown) | – | 4.78 |
| C[n+]1cccc(C(=O)OCCCCCCCCOc2cccc(OCc3ccccc3)c2)c1 | – | 4.44 |
| CSCC(C(=O)OCCCCCCCn1ccc2cc(OCc3ccccc3)ccc21)[N+](C)(C)C (stereo not shown) | – | 4.47 |
| C[n+]1cccc(C(=O)NCCCCCCCCOc2ccc(OC(=O)c3cc(Cl)cc(Cl)c3)cc2)c1 | – | 4.56 |
| C[n+]1cccc(C(=O)OCCCCCCCCn2ccc3cccc(OCc4ccccc4)c32)c1 | – | 4.44 |
| CC(C)Oc1ccc(C(=O)Oc2ccc(OCCCCCCCCNC(=O)c3ccc[n+](C)c3)cc2)cc1 | – | 4.77 |
| COc1ccc(C(=O)Oc2ccc(OCCCCCCCCOC(=O)C(Cc3ccccc3)[N+](C)(C)C)cc2)cc1 (stereo not shown) | – | 4.77 |
| C[N+](C)(C)c1ccc(CC(=O)NCCCCCCCCOc2ccc(OC(=O)c3ccc(Cl)c(Cl)c3)cc2)cc1 | – | 4.72 |
| C[N+](C)(C)c1ccc(CC(=O)OCCCCCCCCCCOc2ccc(OCc3ccccc3)cc2)cc1 | – | 4.58 |
| COC(=O)c1cc2cc(OCc3ccccc3)ccc2n1CCCCCCCCNC(=O)Cc1ccc([N+](C)(C)C)cc1 | – | 4.44 |
| COc1cccc(COc2ccc(OCCCCCCCCOC(=O)Cc3ccc([N+](C)(C)C)cc3)cc2)c1 | – | 4.65 |
| C[n+]1cccc(C(=O)NCCCCCCCCOc2ccc(OC(=O)c3ccccc3Cl)cc2)c1 | – | 4.32 |
| C[N+](C)(C)c1ccc(CC(=O)OCCCCCCCCOc2ccc3c(c2)C(=O)CC(c2ccccc2)O3)cc1 (stereo not shown) | – | 4.53 |
| C[N+](C)(C)C(Cc1ccccc1)C(=O)OCCCCCCCCOc1ccc(OC(=O)c2ccc([N+](=O)[O-])cc2)cc1 (stereo not shown) | – | 4.80 |
| COC(=O)c1cc2cc(OCc3ccccc3)ccc2n1CCCCCCCOC(=O)c1ccc[n+](C)c1 | – | 4.44 |
| C[N+](C)(C)c1ccc(CC(=O)OCCCCCCCCCCCCOc2ccc(OCc3ccccc3)cc2)cc1 | – | 4.29 |
